Source: patent US20230240991A1, “PROTEOPHOSPHOLIPOSOMES HAVING HDL-TYPE VESICLES” (priority 2019, published 2023)

Tested on: intact washed human platelets
Assay: [3H]PAF radioligand binding to intact washed human platelets after preincubation with plasma fractions (FIG. 1)
Details: delipidated human serum albumin 0.5 mg/ml, n=3
Source text: Washed intact human thrombocytes are protected with plasma fractions from healthy volunteers (n=3, means, ±1 S.D.). The plasma fractions were formed prior to the experiments using ultracentrifugation and dialysis in an outsourced laboratory. The HDL-fractions or antibodies against human serum albumin protected intact cells against fatty alcohols e.g. against albumin overloaded with fatty ligands. The FIG. 1 serves as representative model for isotonic liquids which can be used as starting materials, as eluates, as carriers for protection of cells. […] The nanometer size of the proteophospholiposomes is adapted also for the diagnostic procedures including diagnostic appliances of labeled proteophospholiposomes and/or of labeled HDL-type vesicles. The labeled proteoliposomes are formed layer by layer with fully specified methods and procedures are not limited therewith.
The thrombocytes are further preincubated with dialyzed, delipidated plasma proteins (0.36 mg/ml), with purified VLDL-fractions (0.9 mg/ml), with IDL (0.02 mg/ml), with HDL (0.5 mg/ml) or with delipidated HSA (0.25%). […] Thienodiazepines were established before as specific PAF-receptor antagonists (WEB40 nM). […]

With “Delipidated human serum albumin: delipidated human serum albumin” the “inhibition of [3H]PAF binding” value was “only a modest inhibition”.
